Results as given in PMC5412283, “Role and Function of A2A and A3 Adenosine Receptors in Patients with Ankylosing Spondylitis, Psoriatic Arthritis and Rheumatoid Arthritis” (International Journal of Molecular Sciences, 2017).

Chains of the proteins cited; added tags and fusions are not shown.
UniProt P0DMS8, whole entry: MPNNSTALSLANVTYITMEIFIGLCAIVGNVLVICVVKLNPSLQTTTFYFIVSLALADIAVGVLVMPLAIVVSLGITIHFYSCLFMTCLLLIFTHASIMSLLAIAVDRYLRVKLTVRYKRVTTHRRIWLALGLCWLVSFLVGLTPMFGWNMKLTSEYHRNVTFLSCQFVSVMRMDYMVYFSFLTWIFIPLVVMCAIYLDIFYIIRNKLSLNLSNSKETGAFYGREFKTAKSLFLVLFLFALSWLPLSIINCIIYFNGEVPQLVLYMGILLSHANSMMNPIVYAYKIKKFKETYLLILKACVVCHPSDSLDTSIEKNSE

Target: T1, A3AR (Homo sapiens, UniProt P0DMS8)
T1 construct: gene ADORA3; native full-length receptor in peripheral blood lymphocytes or their membranes (healthy donors)
Assay: radioligand saturation binding, lymphocyte membranes, filtration
Conditions: labelled compound; healthy subjects (n = […]); […] min at […] °C; membranes prepared in Tris HCl […] pH […] with adenosine deaminase; read-out: A3ARs - KD (nM) / Bmax (fmol/mg protein)
Excerpt: radioligand saturation binding, lymphocyte membranes, filtration on A3AR

Kd: 1.79 ± 0.15 nM
SMILES: CCCn1cc2c(nc(NC(=O)Nc3ccc(OC)cc3)n3nc(-c4ccco4)nc23)n1 [[^3H]-MRE 3008F20, [^3H]-5N-(4-methoxyphenylcarbamoyl) amio-8-propyl-2-(2-furyl) pyrazolo [4,3-e]-1,2,4-triazolo [1,5-c]pyrimidine]
